Literature values in patent US11464753B2, “Composition for treatment of neurodegenerative disease” (WINNING THE FIGHT INC., priority 2013, dated 2022).

Test system: ALS patients
Conditions: background statement; cited from earlier work

Question: Which effect on survival does the source give for Nc1nc2ccc(OC(F)(F)F)cc2s1 [Riluzole] here?
Answer: The effect on survival was “limited effect on survival”.
